# Reference: patent publication US20260048041A1, “COMPOSITION FOR REMOVING HELICOBACTER PYLORI COMPRISING ZASTAPRAZAN OR PHARMACEUTICALLY ACCEPTABLE SALT THEREOF” (JEIL PHARMACEUTICAL CO., LTD., priority 2022, published 2026)
# System: Helicobacter pylori SS1 (mouse colonizing strain)
# Test: Anti-H. pylori in vitro efficacy test, MIC and MBC by microdilution (CLSI)
# Assay type: cell-based
# Conditions: unit not given in table (method uses μg/mL)
# Protocol: Helicobacter pylori SS1 (mouse colonizing strain): A strain known as Sydney strain. The strain is CagA-positive and VacA-positive and has been confirmed to infect and colonize in C57BL/6 mice. The strain is used in animal testing. An antibiotic susceptibility testing was performed using the microdilution method according to the CLSI guideline. […] The bacteria were inoculated into wells containing only medium without antibiotics to prepare the positive control group, and the wells containing only medium without antibiotics or inoculated bacteria were used as the negative control group. The concentration range of the test substances, zastaprazan (JP-1366) and fexuprazan, was determined through preliminary experiments. […] The lowest concentration at which no bacterial growth was observed was determined as the MIC. […] The lowest concentration at which no bacteria growth occurred was determined as the MBC. […] All tests were performed in duplicate, and the results were determined by conducting the experiments in triplicate.
compound,measurement,value
CC1(C)S[C@@H]2[C@H](NC(=O)[C@H](N)c3ccc(O)cc3)C(=O)N2[C@H]1C(=O)O [Amoxicillin],MIC,0.125~0.25
